Assay results: ChEMBL document CHEMBL5661974, “Pharmacologic characterization of a potent inhibitor of class I phosphatidylinositide 3-kinases” (Cancer Res, 2007)

By UniProt entry, the sequences of proteins in these tests, tags left out. Where a name states a change or a piece, a line headed by the entry shows the natural chain unless it says otherwise.
UniProt P42338: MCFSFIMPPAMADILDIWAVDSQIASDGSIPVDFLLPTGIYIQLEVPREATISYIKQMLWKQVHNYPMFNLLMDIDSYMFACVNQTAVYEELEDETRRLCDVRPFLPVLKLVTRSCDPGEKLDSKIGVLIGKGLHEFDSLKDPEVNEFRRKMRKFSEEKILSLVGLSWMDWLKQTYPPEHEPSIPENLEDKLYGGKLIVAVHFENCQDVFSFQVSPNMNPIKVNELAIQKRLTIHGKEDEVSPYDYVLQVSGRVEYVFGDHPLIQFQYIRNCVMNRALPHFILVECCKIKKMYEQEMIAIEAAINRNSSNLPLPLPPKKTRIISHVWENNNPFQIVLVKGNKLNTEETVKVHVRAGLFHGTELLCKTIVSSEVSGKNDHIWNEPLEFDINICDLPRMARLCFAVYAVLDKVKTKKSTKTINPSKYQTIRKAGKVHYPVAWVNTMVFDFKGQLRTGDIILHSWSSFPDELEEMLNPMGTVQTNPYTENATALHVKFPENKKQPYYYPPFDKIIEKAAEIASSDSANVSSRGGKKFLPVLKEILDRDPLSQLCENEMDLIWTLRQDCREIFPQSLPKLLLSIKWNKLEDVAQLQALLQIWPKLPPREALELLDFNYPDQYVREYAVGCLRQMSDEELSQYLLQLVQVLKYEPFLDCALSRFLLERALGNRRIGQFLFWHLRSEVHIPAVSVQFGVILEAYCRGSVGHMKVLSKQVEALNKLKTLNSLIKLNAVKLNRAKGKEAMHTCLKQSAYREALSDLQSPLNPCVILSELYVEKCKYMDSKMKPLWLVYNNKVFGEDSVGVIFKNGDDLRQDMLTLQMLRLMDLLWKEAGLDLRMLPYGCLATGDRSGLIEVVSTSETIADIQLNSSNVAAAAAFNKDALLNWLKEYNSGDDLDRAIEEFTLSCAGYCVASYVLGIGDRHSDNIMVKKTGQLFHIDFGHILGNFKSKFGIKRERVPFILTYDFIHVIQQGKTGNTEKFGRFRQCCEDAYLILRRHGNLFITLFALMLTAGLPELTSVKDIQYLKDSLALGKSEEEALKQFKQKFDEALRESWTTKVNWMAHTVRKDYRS

Legend:
[1] = Clearance in BALB/C mouse spleen at 2.5 mg/kg, iv by LC-MS/MS analysis; type: ADME, organism-based; settings: in vivo
[2] = Clearance in BALB/C mouse liver at 2.5 mg/kg, iv by LC-MS/MS analysis; type: ADME, organism-based; settings: in vivo
[3] = Clearance in BALB/C mouse kidney at 2.5 mg/kg, iv by LC-MS/MS analysis; type: ADME, organism-based; settings: in vivo
[4] = target: Phosphatidylinositol 4,5-bisphosphate 3-kinase catalytic subunit beta isoform (Homo sapiens, UniProt P42338)
[5] = target: T1, Phosphatidylinositol 4,5-bisphosphate 3-kinase catalytic subunit delta isoform (Homo sapiens, UniProt O00329); test: Inhibition of human recombinant PI3Kdelta in the presence of ATP by scintillation proximity radiometric assay
T1 sequence (O00329 whole entry): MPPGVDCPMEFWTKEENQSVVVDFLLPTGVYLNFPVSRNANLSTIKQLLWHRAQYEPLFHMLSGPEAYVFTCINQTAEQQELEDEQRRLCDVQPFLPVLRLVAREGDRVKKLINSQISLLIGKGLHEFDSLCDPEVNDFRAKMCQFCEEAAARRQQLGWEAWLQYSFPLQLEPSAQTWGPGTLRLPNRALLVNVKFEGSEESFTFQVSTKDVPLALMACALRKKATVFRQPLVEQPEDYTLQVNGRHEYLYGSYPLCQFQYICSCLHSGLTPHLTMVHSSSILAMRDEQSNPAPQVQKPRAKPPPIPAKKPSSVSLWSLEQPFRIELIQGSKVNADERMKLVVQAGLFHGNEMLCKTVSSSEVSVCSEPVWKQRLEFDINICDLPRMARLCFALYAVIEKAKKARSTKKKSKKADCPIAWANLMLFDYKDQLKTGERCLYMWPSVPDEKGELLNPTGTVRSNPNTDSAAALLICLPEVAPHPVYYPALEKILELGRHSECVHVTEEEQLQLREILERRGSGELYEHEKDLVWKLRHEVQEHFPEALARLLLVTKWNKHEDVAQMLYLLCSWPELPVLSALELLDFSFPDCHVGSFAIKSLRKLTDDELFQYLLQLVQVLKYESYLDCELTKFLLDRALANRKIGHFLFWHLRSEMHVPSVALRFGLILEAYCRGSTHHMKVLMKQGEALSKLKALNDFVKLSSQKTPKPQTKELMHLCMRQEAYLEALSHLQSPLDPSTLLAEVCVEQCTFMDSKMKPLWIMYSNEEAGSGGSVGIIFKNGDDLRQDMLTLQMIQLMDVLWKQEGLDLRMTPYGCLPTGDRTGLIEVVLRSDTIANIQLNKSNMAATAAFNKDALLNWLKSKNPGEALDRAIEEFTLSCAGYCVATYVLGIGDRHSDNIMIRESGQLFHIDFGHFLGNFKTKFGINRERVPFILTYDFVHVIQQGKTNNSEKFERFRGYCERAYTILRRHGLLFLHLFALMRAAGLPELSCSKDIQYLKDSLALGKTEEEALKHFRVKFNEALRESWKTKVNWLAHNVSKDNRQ
In short: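 Human recombinant enzyme; scintillation proximity radiometric format with 1 μmol/L ATP. IC50 from sigmoidal dose-response fit, mean of three experiments.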

Compound	CL [1]	CLH [2]	CL [3]	IC50 [4]	IC50 [5]
Oc1cccc(-c2nc(N3CCOCC3)c3oc4ncccc4c3n2)c1 [PI-103]	0.27 L/h	0.09 L/h	0.26 L/h	–	–
O=c1cc(N2CCOCC2)oc2c(-c3ccccc3)cccc12 [LY-294002]	–	–	–	580 nM	600 nM
